## Permeability data for macrocyclic peptides

Collected by the curators of CycPeptMPDB (Li et al. 2023) from Townsend et al. 2020, doi:10.26434/chemrxiv.13335941.v1.

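The data file gives no further conditions (lipid, pH, time, direction or concentration), and values from different papers need not be comparable. Other peptides of the study may be missing here. Entries at the database's floor value (log10 P of -10) are not listed.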

PAMPA measures passive passage through an artificial lipid membrane. P is given in units of 10^-6 cm/s (from log10 values with two decimals); larger means faster passage.

SMILES | PAMPA (10^-6 cm/s)
CC(C)C[C@H]1C(=O)N[C@@H](Cc2ccccc2)C(=O)N[C@H](C)C(=O)N(Cc2ccccc2)CC(=O)N[C@@H](Cc2ccccc2)CC(=O)N2CCC[C@H]2C(=O)N1C | 3
CC(C)C[C@H]1C(=O)N[C@@H](Cc2ccccc2)CC(=O)N2CCC[C@H]2C(=O)N(Cc2ccccc2)CC(=O)N[C@@H](Cc2ccccc2)C(=O)N[C@@H](C)C(=O)N1C | 0.76
CC(C)C[C@@H]1C(=O)N[C@@H](Cc2ccccc2)C(=O)N2CCC[C@H]2C(=O)N[C@H](C)C(=O)N(Cc2ccccc2)CC(=O)N[C@H](CC(C)C)C(=O)N2CCC[C@H]2C(=O)N1C | 2.5
CC(C)C[C@H]1C(=O)N2CCC[C@@H]2C(=O)N(C)[C@@H](CC(C)C)C(=O)N[C@@H](Cc2ccccc2)C(=O)N2CCC[C@H]2C(=O)N[C@@H](C)C(=O)N(Cc2ccccc2)CC(=O)N1C | 2.7
CC(C)C[C@@H]1NC(=O)C[C@H](Cc2ccccc2)NC(=O)[C@H](Cc2ccccc2)NC(=O)[C@@H](CC(C)C)N(C)C(=O)[C@H]2CCCN2C(=O)CN(Cc2ccccc2)C1=O | 4.2
CC(C)C[C@@H]1NC(=O)[C@@H]2CCCN2C(=O)[C@@H](CC(C)C)NC(=O)CN(Cc2ccccc2)C(=O)[C@H](C)N(C)C(=O)[C@H]2CCCN2C(=O)[C@H](Cc2ccccc2)NC1=O | 0.44
CC(C)C[C@@H]1NC(=O)C[C@H](Cc2ccccc2)NC(=O)[C@H](Cc2ccccc2)NC(=O)CN(Cc2ccccc2)C(=O)[C@@H]2CCCN2C(=O)[C@@H](CC(C)C)N(C)C1=O | 2.5
CC(C)C[C@@H]1C(=O)N2CCC[C@H]2C(=O)N(Cc2ccccc2)CC(=O)N[C@@H](Cc2ccccc2)C(=O)N2CCC[C@H]2C(=O)N[C@@H](C)C(=O)N(Cc2ccccc2)CC(=O)N1C | 0.58
CC(C)C[C@H]1C(=O)N2CCC[C@H]2C(=O)N(Cc2ccccc2)CC(=O)N[C@@H](Cc2ccccc2)C(=O)N2CCC[C@H]2C(=O)N(C)[C@@H](C)C(=O)N(Cc2ccccc2)CC(=O)N1C | 2
CC(C)C[C@H]1C(=O)N2CCC[C@@H]2C(=O)N(Cc2ccccc2)CC(=O)N[C@@H](Cc2ccccc2)C(=O)N2CCC[C@H]2C(=O)N(C)[C@H](C)C(=O)N(Cc2ccccc2)CC(=O)N1C | 1.5
CC(C)C[C@H]1C(=O)N(C)[C@@H](CC(C)C)C(=O)N2CCC[C@@H]2C(=O)N(Cc2ccccc2)CC(=O)N[C@@H](Cc2ccccc2)C(=O)N2CCC[C@H]2C(=O)N[C@@H](Cc2ccccc2)CC(=O)N1C | 1.8
CCCN1CC(=O)N(C)[C@@H](CC(C)C)C(=O)N[C@@H](Cc2ccccc2)CC(=O)N2CCC[C@@H]2C(=O)N[C@H](CC(C)C)C(=O)N[C@@H](Cc2ccccc2)C1=O | 4.5
CC(C)C[C@@H]1NC(=O)C[C@H](Cc2ccccc2)NC(=O)[C@H](Cc2ccccc2)NC(=O)CN(Cc2ccccc2)C(=O)[C@@H]2CCCN2C(=O)CN(Cc2ccccc2)C1=O | 1.7
CCCN1CC(=O)N(Cc2ccccc2)CC(=O)N(Cc2ccccc2)CC(=O)N2CCC[C@H]2C(=O)N(Cc2ccccc2)CC(=O)N[C@@H](Cc2ccccc2)C(=O)N2CCC[C@H]2C1=O | 1.7
C[C@H]1NC(=O)[C@H]2CCCN2C(=O)[C@H](Cc2ccccc2)NC(=O)CN(Cc2ccccc2)C(=O)[C@@H]2CCCN2C(=O)CN(Cc2ccccc2)C(=O)CN(Cc2ccccc2)C1=O | 0.65
CC(C)C[C@@H]1NC(=O)C[C@H](Cc2ccccc2)NC(=O)[C@H](Cc2ccccc2)NC(=O)[C@@H](CC(C)C)N(C)C(=O)[C@@H]2CCCN2C(=O)CN(Cc2ccccc2)C1=O | 3.4
CCCN1CC(=O)N[C@H](CC(C)C)C(=O)N[C@@H](Cc2ccccc2)CC(=O)N2CCC[C@@H]2C(=O)N(Cc2ccccc2)CC(=O)N[C@@H](Cc2ccccc2)C(=O)N2CCC[C@@H]2C1=O | 0.26

Again, the 3 entries with the lowest PAMPA:

{"smiles": "CCCN1CC(=O)N[C@H](CC(C)C)C(=O)N[C@@H](Cc2ccccc2)CC(=O)N2CCC[C@@H]2C(=O)N(Cc2ccccc2)CC(=O)N[C@@H](Cc2ccccc2)C(=O)N2CCC[C@@H]2C1=O", "PAMPA (10^-6 cm/s)": "0.26"}
{"smiles": "CC(C)C[C@@H]1NC(=O)[C@@H]2CCCN2C(=O)[C@@H](CC(C)C)NC(=O)CN(Cc2ccccc2)C(=O)[C@H](C)N(C)C(=O)[C@H]2CCCN2C(=O)[C@H](Cc2ccccc2)NC1=O", "PAMPA (10^-6 cm/s)": "0.44"}
{"smiles": "CC(C)C[C@@H]1C(=O)N2CCC[C@H]2C(=O)N(Cc2ccccc2)CC(=O)N[C@@H](Cc2ccccc2)C(=O)N2CCC[C@H]2C(=O)N[C@@H](C)C(=O)N(Cc2ccccc2)CC(=O)N1C", "PAMPA (10^-6 cm/s)": "0.58"}